In this experiment the target is human MAO-B (Homo sapiens, UniProt P27338). Kind of experiment: MAO-B kynuramine assay.

By UniProt entry, the sequences of proteins in these tests, tags left out.
UniProt P27338, whole entry: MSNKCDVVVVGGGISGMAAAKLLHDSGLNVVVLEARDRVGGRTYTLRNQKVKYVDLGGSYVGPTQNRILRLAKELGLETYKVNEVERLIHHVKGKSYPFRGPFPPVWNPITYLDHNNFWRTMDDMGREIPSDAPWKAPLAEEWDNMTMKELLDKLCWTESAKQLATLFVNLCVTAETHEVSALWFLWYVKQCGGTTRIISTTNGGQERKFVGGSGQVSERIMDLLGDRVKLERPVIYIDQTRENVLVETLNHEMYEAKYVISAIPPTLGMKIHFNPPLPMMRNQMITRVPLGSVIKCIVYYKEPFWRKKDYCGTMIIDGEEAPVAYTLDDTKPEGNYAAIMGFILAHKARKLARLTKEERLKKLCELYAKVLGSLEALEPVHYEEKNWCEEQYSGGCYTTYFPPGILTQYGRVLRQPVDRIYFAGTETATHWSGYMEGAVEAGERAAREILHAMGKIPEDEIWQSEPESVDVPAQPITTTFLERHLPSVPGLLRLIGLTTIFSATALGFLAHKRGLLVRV

In general, IC50 refers to the concentration needed to halve the response being measured. On to `c1ccc([C@@H]2C[C@H]2NC2CCNCC2)cc1` [OG-668], for which the 50% inhibitory concentration (IC50) was more than 100 µM.

For the origin of these results see publication PMC8669716 (ACS Pharmacology & Translational Science, 2021).
